For experiment [1], the target named is Muscarinic acetylcholine receptor M1 (Homo sapiens, UniProt P11229). Nature of the experiment: Displacement of [3H]NMS from recombinant human muscarinic M1 receptor expressed in CHOK1 cell membranes after 120 mins by scintillation counting method.
Experiment [2] has as its target Muscarinic acetylcholine receptor M2 (Homo sapiens, UniProt P08172). Briefly: Displacement of [3H]NMS from recombinant human muscarinic M2 receptor expressed in CHOK1 cell membranes after 120 mins by scintillation counting method. For orientation: In a radioligand displacement assay an active substance lowers the binding of a labelled ligand.
In experiment [3] the target is Muscarinic acetylcholine receptor M3 (Homo sapiens, UniProt P20309). Briefly: Displacement of [3H]NMS from recombinant human muscarinic M3 receptor expressed in CHOK1 cell membranes after 120 mins by scintillation counting method.
For experiment [4], the target named is Muscarinic acetylcholine receptor M4 (Homo sapiens, UniProt P08173). Nature of the experiment: Displacement of [3H]NMS from recombinant human muscarinic M4 receptor expressed in CHOK1 cell membranes after 120 mins by scintillation counting method.
In experiment [5] the target is Muscarinic acetylcholine receptor M5 (Homo sapiens, UniProt P08912). Nature of the experiment: Displacement of [3H]NMS from recombinant human muscarinic M5 receptor expressed in CHOK1 cell membranes after 120 mins by scintillation counting method.

By UniProt entry, the sequences of proteins in these tests, tags left out.
UniProt P11229, whole entry: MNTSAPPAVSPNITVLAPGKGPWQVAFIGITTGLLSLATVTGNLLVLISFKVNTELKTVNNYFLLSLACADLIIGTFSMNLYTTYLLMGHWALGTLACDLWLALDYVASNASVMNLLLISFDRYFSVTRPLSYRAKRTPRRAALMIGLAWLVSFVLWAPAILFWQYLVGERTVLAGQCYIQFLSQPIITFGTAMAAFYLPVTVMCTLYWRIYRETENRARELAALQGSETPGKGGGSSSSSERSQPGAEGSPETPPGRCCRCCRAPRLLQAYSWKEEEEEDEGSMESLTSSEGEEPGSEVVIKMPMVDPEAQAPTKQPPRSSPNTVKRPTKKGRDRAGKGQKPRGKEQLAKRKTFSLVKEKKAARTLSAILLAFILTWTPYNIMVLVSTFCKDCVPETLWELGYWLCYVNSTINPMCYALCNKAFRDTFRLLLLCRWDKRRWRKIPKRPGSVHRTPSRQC
UniProt P08172, whole entry: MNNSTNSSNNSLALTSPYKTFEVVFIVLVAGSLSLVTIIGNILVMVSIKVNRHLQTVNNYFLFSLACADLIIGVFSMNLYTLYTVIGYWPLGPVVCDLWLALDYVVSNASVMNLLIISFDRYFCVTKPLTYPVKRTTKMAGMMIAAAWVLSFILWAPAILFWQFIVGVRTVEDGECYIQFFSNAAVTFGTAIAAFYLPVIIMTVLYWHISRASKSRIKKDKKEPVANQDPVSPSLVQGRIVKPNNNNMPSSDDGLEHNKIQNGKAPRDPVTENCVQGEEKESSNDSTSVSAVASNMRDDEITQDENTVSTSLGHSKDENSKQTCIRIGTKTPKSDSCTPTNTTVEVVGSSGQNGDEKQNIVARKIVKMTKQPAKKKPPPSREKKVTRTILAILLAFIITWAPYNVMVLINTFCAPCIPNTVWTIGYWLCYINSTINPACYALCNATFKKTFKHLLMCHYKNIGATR
UniProt P20309, whole entry: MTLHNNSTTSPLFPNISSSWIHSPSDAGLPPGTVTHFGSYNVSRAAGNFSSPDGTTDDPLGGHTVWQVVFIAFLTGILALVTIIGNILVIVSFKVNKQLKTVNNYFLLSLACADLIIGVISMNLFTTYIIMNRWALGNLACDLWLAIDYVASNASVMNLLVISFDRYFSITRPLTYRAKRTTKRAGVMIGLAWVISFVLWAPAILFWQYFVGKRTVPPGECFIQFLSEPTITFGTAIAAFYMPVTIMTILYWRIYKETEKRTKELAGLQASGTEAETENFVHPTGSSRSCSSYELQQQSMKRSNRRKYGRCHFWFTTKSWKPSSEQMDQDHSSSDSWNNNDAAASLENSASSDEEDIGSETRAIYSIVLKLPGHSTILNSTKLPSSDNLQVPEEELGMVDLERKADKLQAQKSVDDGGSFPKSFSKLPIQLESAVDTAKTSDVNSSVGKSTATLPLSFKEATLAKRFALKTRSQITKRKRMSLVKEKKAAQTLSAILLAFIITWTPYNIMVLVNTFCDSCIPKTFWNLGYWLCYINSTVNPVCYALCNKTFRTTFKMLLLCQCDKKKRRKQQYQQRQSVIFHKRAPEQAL
UniProt P08173, whole entry: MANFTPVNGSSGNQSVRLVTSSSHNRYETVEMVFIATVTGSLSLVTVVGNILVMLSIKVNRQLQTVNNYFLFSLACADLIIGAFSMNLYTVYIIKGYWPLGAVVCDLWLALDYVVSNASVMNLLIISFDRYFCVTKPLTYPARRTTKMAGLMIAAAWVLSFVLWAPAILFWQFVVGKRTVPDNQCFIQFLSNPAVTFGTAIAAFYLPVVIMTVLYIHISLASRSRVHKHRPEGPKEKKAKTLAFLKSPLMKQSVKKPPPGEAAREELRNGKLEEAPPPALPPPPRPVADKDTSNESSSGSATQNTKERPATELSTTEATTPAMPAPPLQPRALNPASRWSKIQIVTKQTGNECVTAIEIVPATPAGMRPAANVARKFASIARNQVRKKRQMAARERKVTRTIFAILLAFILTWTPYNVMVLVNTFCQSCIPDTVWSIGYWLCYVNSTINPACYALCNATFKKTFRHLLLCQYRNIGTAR
UniProt P08912, whole entry: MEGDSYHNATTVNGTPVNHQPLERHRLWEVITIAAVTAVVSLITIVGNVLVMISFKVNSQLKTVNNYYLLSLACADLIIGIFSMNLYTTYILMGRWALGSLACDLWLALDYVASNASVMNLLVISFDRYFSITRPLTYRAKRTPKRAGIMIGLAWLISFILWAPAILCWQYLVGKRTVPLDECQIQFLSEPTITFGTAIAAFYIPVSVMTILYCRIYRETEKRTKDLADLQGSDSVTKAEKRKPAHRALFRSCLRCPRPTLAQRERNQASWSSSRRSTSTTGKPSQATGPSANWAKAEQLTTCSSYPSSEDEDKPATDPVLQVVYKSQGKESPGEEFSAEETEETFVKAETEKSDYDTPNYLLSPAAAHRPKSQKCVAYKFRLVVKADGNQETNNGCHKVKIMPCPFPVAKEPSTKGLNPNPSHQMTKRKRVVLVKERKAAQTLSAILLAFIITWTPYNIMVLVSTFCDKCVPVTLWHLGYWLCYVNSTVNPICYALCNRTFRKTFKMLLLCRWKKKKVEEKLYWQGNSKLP

Three compounds from ChEMBL document CHEMBL4118068 (Eur J Med Chem, 2017) can be followed below.

Broadly, the pKi is −log10 of the Ki, conventionally taken in molar units.

With `C[C@]1(C(=O)O[C@H]2CN3CCC2CC3)COCC(c2ccccc2)(c2ccccc2)O1`, the pKi in experiment [1] came to 7.17; in experiment [2] it was 6.8; in experiment [3] it was 6.4; in experiment [4] it was 6.85; in experiment [5], 6.44.

In the case of `C[C@@]1(C(=O)O[C@H]2CN3CCC2CC3)COCC(c2ccccc2)(c2ccccc2)O1`, the negative-log Ki (pKi) in experiment [1] is 6.92; in experiment [2], 6.7; in experiment [3], 6.38; in experiment [4], 6.75; in experiment [5], 6.33.

On to `C[C@@]1(C(=O)O[C@@H]2CN3CCC2CC3)COCC(c2ccccc2)(c2ccccc2)O1`, for which the pKi was determined as 6.18 in experiment [1]; 5.81 in experiment [2]; 5.79 in experiment [3]; 5.56 in experiment [4]; 5.89 in experiment [5].
